The subject of the assay is TEL-VEGFR2-BaF3. Briefly: Anti-proliferation assay. The class given is cell-based. To be noted: 72 h.

The term GI50 denotes the concentration at which growth is held to half of that of the control. A lower GI50 goes with more potent growth inhibition. Take `CCN(CC)CCNC(=O)c1c(C)[nH]c(/C=C2\C(=O)Nc3ccc(F)cc32)c1C` [Sunitinib]: the 50% growth inhibitory concentration (GI50) worked out at 5 nM.

These data come from paper PMC7049616 (Acta Pharmaceutica Sinica. B, 2019).
